The values that follow are results of earlier work, collected in article PMC7007292 (Oncotarget, 2020).

For the data set, the system named is GC patients. To be noted: added to standard chemotherapy vs chemotherapy alone; cited from earlier work.

As for “trastuzumab: recombinant humanized monoclonal antibody against ERBB2/Her2”, the “median OS” value is reported as “improved median OS”.
